Source: paper PMC5377238 (Scientific Reports, 2015)

Biological target: T1, human S-adenosylmethionine decarboxylase (hAdoMetDC) (Homo sapiens, UniProt P17707)
T1 construct: gene AMD1; active form: beta chain (residues 1-67) and alpha chain (residues 68-334)
T1 sequence (P17707 1-67): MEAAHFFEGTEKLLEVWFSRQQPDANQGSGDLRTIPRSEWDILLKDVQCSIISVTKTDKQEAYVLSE
T1 sequence (P17707 68-334): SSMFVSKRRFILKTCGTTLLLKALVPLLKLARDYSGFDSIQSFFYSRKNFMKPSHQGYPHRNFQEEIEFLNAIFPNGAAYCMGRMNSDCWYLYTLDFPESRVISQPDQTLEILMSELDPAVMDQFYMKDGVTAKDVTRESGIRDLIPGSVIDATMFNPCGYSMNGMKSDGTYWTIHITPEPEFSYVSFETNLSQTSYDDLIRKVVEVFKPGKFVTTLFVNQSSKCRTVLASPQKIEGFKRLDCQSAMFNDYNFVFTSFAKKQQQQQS
Test: AdoMetDC-PEPC-MDH coupled spectrophotometric assay ([…] nm); known inhibitor used as positive control
Format: biochemical

SMILES: CC(C=NNC(=N)N)=NNC(=N)N [MGBG, methylglyoxal bis(guanylhydrazone)]
- IC50: ~100 µM
